Laboratory results published in patent publication US20140370035A1.

Columns and labels:
[1] = molecular target: human von Willebrand factor (human) (UniProt P04275); assay: SPR (BIAcore); FVIII protein as analyte, hvWf as ligand; N=5; KD = off-rate/on-rate
[2] = molecular target: human von Willebrand factor (human) (UniProt P04275); assay: SPR (BIAcore); FVIII protein as analyte, hvWf as ligand; N=5

Kd [1] [nM]	koff [2] [s⁻¹]	kon [2] [M⁻¹ s⁻¹]	Substance
1.28	0.00109	866000	Single chain rFVIIIFc (non-processed isoform purified from rFVIIIFc DS) (from UniProt P0DOX5 223-449) (Fc fusion)
1.64	0.00125	792000	rFVIIIFc DS (recombinant B-domain deleted FVIII-Fc monomer hybrid, drug substance) (from UniProt P0DOX5 223-449) (Fc fusion)
